Assay [1] has as its target CD74 expressed on HEK293-CD74 transfectants (UniProt P04233). Description: flow cytometry, Alexa 488-MIF on HEK293-CD74 transfectants, no msR4M-L1; the control plot prints Q3 1,02. Background: In flow cytometry, cells or beads pass a laser one at a time.
For assay [2] the target is unchanged. Description: flow cytometry, Alexa 488-MIF on HEK293-CD74 transfectants in the presence of 5 x-fold msR4M-L1; the control plot prints Q3 1,02.
For assay [3], the target named is HA-tagged sCD74(73-232) (human) (UniProt P04233). Description: microscale thermophoresis; 50 nM MST-Red-MIF titrated with HA-sCD74(73-232) in the presence of 2 µM msR4M-L1.
Assay [4] shares this target. Description: microscale thermophoresis; 50 nM MST-Red-MIF titrated with HA-sCD74(73-232) up to 2 µM. A general note: Microscale thermophoresis detects binding through changes in fluorescence in a small temperature gradient.

B1: human macrophage migration-inhibitory factor (MIF) (ligand, UniProt P14174 2-115, looked up)
chain: PMFIVNTNVPRASVPDGFLSELTQQLAQATGKPPQYIAVHVVPDQLMAFGGSSEPCALCSLHSIGKIGGAQNRSYSKLLCGLLAERLRISPDRVYINYYDMNAANVGWNNSTFA
modifications: Alexa-Fluor 488 or Monolith NT-647 (MST-Red) label where so named
Consider B1, for which the results for the Q3 (share of events in the Alexa 488-MIF+ quadrant) in assay [1] and in assay [2] were 5.05 and 4.89, respectively. Besides, the Kd is 21.8 nM in assay [3] and 54.5 nM in assay [4].

A word on the Kd: it is the free concentration of one partner at which half of the binding sites on the other are occupied at equilibrium, for simple one-to-one binding.
